Apparent affinities of Ab-14 variants for a coronavirus HR2 peptide

Reference: Li et al. 2023, doi:10.1038/s41467-023-39022-2. File: FLAb, binding data.

Binding partner: SARS-CoV-2 spike HR2 peptide, sequence PDVDLGDISGINAS.

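These sequences belong to a second round, designed from the earlier measurements on random variants of the parent. Several design methods are mixed in this list. The assay is AlphaSeq: two haploid yeast populations carry antibody and antigen on their surface. After mating in shaken culture at 30 °C for 16 h, diploids were selected and their barcode pairs sequenced. Read counts were normalised to the haploid input and turned into Kd by a linear fit to BCL2-family pairs of known affinity, for each replicate. The assay was run in six technical replicates.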

Ab-14 is the parent antibody, in scFv form: VH, then a (GGGGS)3 linker, then VL. The light chain is unchanged in all variants.
VH: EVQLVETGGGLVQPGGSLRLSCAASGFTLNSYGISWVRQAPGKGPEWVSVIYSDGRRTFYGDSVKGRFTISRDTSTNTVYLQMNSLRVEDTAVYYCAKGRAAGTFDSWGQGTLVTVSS
VL: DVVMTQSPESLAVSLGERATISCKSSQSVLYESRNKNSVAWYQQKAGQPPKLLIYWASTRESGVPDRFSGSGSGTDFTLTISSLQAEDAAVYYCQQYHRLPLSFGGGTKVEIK

The parent's heavy chain CDRs are GFTLNSYGIS, VIYSDGRRTFYGDSVK, GRAAGTFDS; each variant's own CDRs replace them letter for letter. This list holds designs with at most six substitutions. Values are log10 of the apparent Kd in nM; lower means stronger binding. A mean of the replicates is given; it leaves out those without a signal. A pair that was not seen in that replicate is written "n.d."; this usually means weak binding, but a binder can also be missed. As a blank, each scFv also met three strains without target: over all heavy chain designs, 1% of these pairings were detected, typically at 2.08 and seldom below 0.84. For each scFv, signals with the empty controls are counted beside the result, with their mean in brackets.

| CDR-H1 | CDR-H2 | CDR-H3 | log10 Kd (nM) by replicate | mean, log10 nM | control signals |
|---|---|---|---|---|---|
| GFDLNSYGIS | VIYSDGRRTFYSDSVK | GRQAGTFDS | -0.27 0.07 -0.39 -0.09 -0.77 -0.34 | -0.30 | 0 of 18 |
| GFTLNSYGIS | VIYSDGLRTFYGDSVK | GRAAGTDDS | n.d. n.d. n.d. n.d. n.d. n.d. | n.d. | 0 of 18 |
| GFDLNSYGNS | VIYSDGRRTFYGDSVK | GRAAGWFNS | n.d. n.d. n.d. n.d. n.d. n.d. | n.d. | 0 of 18 |
| GFTINSYGIS | VIYSDGRRTFYSDSVK | GTAAGTFDS | 1.18 2.26 n.d. 2.33 1.74 1.77 | 1.86 | 0 of 18 |
| GFTLESYGIS | VIYSDGRRTFYGDSVK | GEAAGTFDS | n.d. 1.73 1.68 n.d. 2.66 n.d. | 2.02 | 0 of 18 |
| GFTLNSYGIS | VIYADGRRTFYIDSVK | GRGTGTFDS | n.d. n.d. n.d. n.d. n.d. n.d. | n.d. | 0 of 18 |
| KFTLNEYGIS | VIYSDGRRTFYTDSVK | GRQAGTFDS | 1.40 1.36 1.51 1.70 2.39 n.d. | 1.67 | 0 of 18 |
| GFTLNQYGIS | VIYSDDRRTFYSDSVK | GRAAGFFDS | n.d. n.d. n.d. n.d. n.d. n.d. | n.d. | 0 of 18 |
| GFTLNSYGIS | VIYSDGRRTFYADDVK | GREAGTFDS | -0.28 -0.18 -0.38 -0.43 -0.26 -0.15 | -0.28 | 1 of 18 (2.22) |
| GFELNSYGIS | VIYSDGRRTFYGDSVK | GQAAGTFDK | n.d. 1.28 n.d. n.d. 1.45 n.d. | 1.36 | 0 of 18 |
| GFTLESYGIS | VIYSDGRRTIYGDSVD | GRAAGTFDS | n.d. 2.07 n.d. n.d. n.d. 2.38 | 2.23 | 0 of 18 |
| GFTLNSYGIS | VIYSDGRRTFYADSVK | GRAAGTFSS | n.d. n.d. 2.67 n.d. n.d. 2.15 | 2.41 | 0 of 18 |
| GFQLNSYGIS | VIYSDGRRTFYIDSVK | GRAAGTFDS | n.d. n.d. n.d. n.d. n.d. n.d. | n.d. | 0 of 18 |
| GFTLNSYGIS | VIYSDGRRTFYGDSVA | GRATGTFDS | n.d. n.d. n.d. n.d. n.d. n.d. | n.d. | 0 of 18 |
| GFPLNEYGIS | VIYSDGRRTEYGDSVK | GDAAGTFDS | 1.82 2.40 1.65 n.d. n.d. n.d. | 1.96 | 1 of 18 (2.12) |
| GFSLNSYGIS | VIYSDGRRTFYSDSVK | GEAAGTFDA | -0.19 -0.12 -0.13 -0.24 -0.07 0.15 | -0.10 | 1 of 18 (2.16) |
| GFTLNSYGIS | VIYSDGRRTAYGDSVK | ARAAGTFDK | n.d. n.d. n.d. n.d. n.d. n.d. | n.d. | 0 of 18 |
| GFGLNSYGIS | VIYSDGRRTFYGDSVK | WRAAGTFDS | n.d. n.d. n.d. n.d. n.d. n.d. | n.d. | 0 of 18 |
| GFTLESYGIS | VIYSDGRRTFYGDSVK | GQGAGTFDS | 2.18 n.d. 2.02 n.d. n.d. n.d. | 2.10 | 1 of 18 (1.60) |
| GFSLNSYGIS | VIYSDGRRTFYGDSVK | GWVAGTFDT | 0.80 0.27 0.45 0.20 0.28 0.86 | 0.48 | 0 of 18 |
| GFTLNSYGIS | VIYSDGKRTFYADSVK | GQAAGTFDL | 1.07 0.64 0.56 0.22 0.61 1.18 | 0.71 | 0 of 18 |
| GFDLNSYGIS | VIYSDGRRTFYGDSVK | GKNAGTFDT | n.d. 1.16 1.47 2.94 2.69 1.17 | 1.89 | 0 of 18 |
| GENLSSYGIS | VIYSDGRRTFYGDNVK | GRAAGTFDS | n.d. n.d. n.d. n.d. n.d. 2.19 | 2.19 | 1 of 18 (2.41) |
| GFDLNSYGIS | VIYSDGRRTFYGDSVK | GEAAGTFDE | 0.33 0.13 0.90 0.69 0.31 0.57 | 0.49 | 0 of 18 |
| GFTLNSYGIS | VIYSDGRRTFYGDSVK | GWVAGTFDF | n.d. 1.26 0.50 1.88 1.09 2.72 | 1.49 | 0 of 18 |
| GFTLNQYGIK | VIYSDRRRTFYSDVVK | GRAAGFFDS | n.d. n.d. n.d. n.d. n.d. n.d. | n.d. | 0 of 18 |
| GKSLNSYGIS | VIYSDGRRTAYGDHVK | GRTAGTFDS | 0.68 n.d. 2.07 1.19 1.28 1.12 | 1.27 | 0 of 18 |
| GFELNDYGIS | VIYSDGRRTEYGDSVK | GRAAGTFDS | 1.38 1.07 0.71 n.d. 0.45 1.48 | 1.02 | 0 of 18 |
| GFDLNNYGIS | VIYSDGRRTFYGDSVK | GREAGTFDT | 0.56 0.36 0.09 0.23 -0.28 0.25 | 0.20 | 1 of 18 (0.71) |
| GFELNSYGIS | VIYSDGKRTFYIDSVK | GQAAGTFDS | 0.60 1.40 0.68 0.88 2.36 0.48 | 1.07 | 0 of 18 |
| GFELNSYGIS | VIYSDGKRTFYGDSVK | GQAAGTFDS | 1.49 1.11 1.01 1.31 0.54 0.99 | 1.07 | 0 of 18 |
| GFDLNSYGIS | VIYSDGRRTFYGDDVK | GRAAGHFTS | n.d. n.d. n.d. n.d. n.d. n.d. | n.d. | 0 of 18 |
| GFTLESYGIS | VIYSDGRRTFYADAVK | GWAAGTFDS | 2.17 2.11 1.89 2.29 n.d. 2.70 | 2.23 | 0 of 18 |
| GFTLNKYGIS | VIYSDGRRTFYGDSVK | GREAGTFDS | 0.69 0.20 0.43 0.10 1.04 0.34 | 0.47 | 0 of 18 |
| GFTLNSYGIS | VIYSDGRRTFYKDSVK | GKTAGTFDS | 0.29 0.22 0.54 0.25 0.08 0.35 | 0.29 | 0 of 18 |
| GFELNEYGIS | VIYSDGRRTFYSDSVK | GRTAGTFDS | -0.05 -0.31 -0.55 -0.21 -0.37 0.62 | -0.15 | 0 of 18 |
| GGTLNDYGIS | VIYSDGWRTFYSDSVK | GRAAGTFDS | n.d. n.d. n.d. n.d. 2.29 n.d. | 2.29 | 0 of 18 |
| GFQLNSYGIS | VIYSDGRRTWYGDSVK | GQAAGTFDS | n.d. 0.32 n.d. n.d. 0.76 1.33 | 0.80 | 0 of 18 |
| GFTLNSYGIS | VIYSDGRRTFYGDSVK | GQEAGTFDL | 2.02 0.94 1.15 0.85 1.00 0.11 | 1.01 | 0 of 18 |
| GFTLNSYGIS | VIYSDGQRTFYIDSVK | GNAAGTFDS | 0.27 0.93 1.08 1.06 0.95 0.92 | 0.87 | 0 of 18 |
| RFDLNSYGIS | VIYSDGLRTFYGDSVK | HRAAGTFDS | n.d. n.d. n.d. n.d. n.d. n.d. | n.d. | 0 of 18 |

Again, the first 3 entries without any signal:

| CDR-H1 | CDR-H2 | CDR-H3 | log10 Kd (nM) by replicate | mean, log10 nM | control signals |
|---|---|---|---|---|---|
| GFTLNSYGIS | VIYSDGLRTFYGDSVK | GRAAGTDDS | n.d. n.d. n.d. n.d. n.d. n.d. | n.d. | 0 of 18 |
| GFDLNSYGNS | VIYSDGRRTFYGDSVK | GRAAGWFNS | n.d. n.d. n.d. n.d. n.d. n.d. | n.d. | 0 of 18 |
| GFTLNSYGIS | VIYADGRRTFYIDSVK | GRGTGTFDS | n.d. n.d. n.d. n.d. n.d. n.d. | n.d. | 0 of 18 |

The authors averaged sequences with at least three values out of six and counted those with two or fewer as poor binders. The range of this assay differs from that of the first round, and the authors advise against merging the two. The parent sequence was in this pool as ten entries: three were never detected, three once, and four in most replicates, with averages from 0.34 to 2.37.